Compound activity: PubChem, National Center for Advancing Translational Sciences (NCATS)
The list is not random: actives were taken first. Their share in the collection is about 13%.
ALDH1A1 inh – ALDH1A1 (human) enzyme inhibition; Potency, µM (titrated, usually from 75.3 µM), without a hit: top-dose activity, negative = inhibition, hits mostly inhibitors; 220,000 compounds, 7.3% hits; Purified ALDH1A1, NADH fluorescence, propionaldehyde substrate; AID 1030; active = well fitted inhibition curve with a large enough effect, not every such curve was filed as active; inconclusive = small, poorly fitted or top-dose-only effect, or another doubt; inactive = no such curve, though single readings can be large or run the other way;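 also: potency is read from the fitted curve at half-maximal effect; plate controls were no enzyme wells and a reference inhibitor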
Sfp inh – blocks B. subtilis Sfp PPTase activity; Biochemical Sfp PPTase activity, qHTS; Q9F4F7; Potency, µM, for inactives: max response, negative = inhibition, most hits filed as inhibitors; hit rate 3.5% among 310,000; active = well fitted inhibition curve with a large enough effect; inconclusive = small, poorly fitted or top-dose-only effect, or another doubt; inactive = no such curve, though single readings can be large or run the other way;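 also: the enzyme is Sfp with the accession as filed and its product quenches rhodamine fluorescence; potency is read from the fitted curve at half-maximal effect; 0% = enzyme reaction without inhibitor and -100% = no enzyme wells; top concentration of the series not given in the record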
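Buffer: 50 mM Hepes-Na pH 7.6, 10 mM MgCl2, 0.01% Nonidet P-40, 0.01% BSA. Enzyme 15 nM, pre-exposed to compound 15 min; substrates then added and fluorescence change tracked over 30 min.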
miR-21 reporter – miR-21 reporter, rising signal; Potency, µM (titrated, usually from 38.3 µM), without a hit: at the highest dose reporter change, positive = more light; AID 2288; 340,000 tested, under 10 active; HeLa miR-21 FLuc reporter, luciferase, 48 h; active = well fitted rising curve with a large enough effect; inconclusive = small, poorly fitted or top-dose-only effect; inactive = no such curve, though single readings can be large or run the other way;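 note: % of control where 0% means no effect; miR-21 action dims this reporter so a rising signal means less miR-21 action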
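Compounds were titrated across several concentrations (up to approximately 40 uM) and incubated 48 hours with HeLa miR-21-FLuc reporter cells (miR-21 target sequence downstream of FLuc, endogenous miR-21). Readout was firefly luciferase luminescence after lytic detection reagent.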
JMJD2E inh – JMJD2E (human) inhibition; JMJD2E catalytic domain, FDH-coupled NADH fluorescence (FDH is formaldehyde dehydrogenase); AID 2147; B2RXH2; Potency, µM (top dose mostly 57.1 µM), for inactives: top-dose activity change, negative = inhibition, actives largely listed as inhibitors; 230,000 compounds, 1.6% hits; active = well fitted inhibition curve with a large enough effect, not every such curve was filed as active; inconclusive = small, poorly fitted or top-dose-only effect, or another doubt; inactive = no such curve, though single readings can be large or run the other way;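 also: potency is read from the fitted curve at half-maximal effect; 0% = wells with enzyme and -100% = buffer wells without enzyme; nearly all actives have a fitted effect of over 50% in size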
G9a inh – blocks human histone lysine methyltransferase G9a; Potency, µM (titrated, usually from 102 µM), for inactives: at the top dose activity, negative = inhibition, usual class: inhibitors; 350,000 compounds, 8.8% hits; G9a H3K9 monomethylation, AlphaScreen, 2 h; AID 504332; also: potency is read from the fitted curve at half-maximal effect; % is scaled to controls: 0 for no effect and ±100 for the full control effect; nearly all actives have a fitted effect of over 75% in size
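G9a (20 nM) was preincubated 15 min with compound, then reacted 2 h at room temperature with 500 nM biotin-H3K9 peptide and 20 µM SAM. Monomethyl-H3K9 detected by AlphaScreen using anti-H3K9me1 antibody.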
Lamin A splicing – changes lamin A minigene splicing in HeLa cells. AID 1487. 200,000 compounds, 0.01% hits. Potency, µM (series often up to 46.1 µM), inactives show at the top dose ratio change, negative = inhibition, usual class: inhibitors. HeLa LMNA splicing GFP/RFP minigene ratio, 48 h; active = well fitted inhibition curve with a large enough effect in the signal ratio, with a control signal flat, not every such curve was filed as active; inconclusive = small, poorly fitted or top-dose-only effect, or effect the other way, or a change in a side signal; the % refers to the signal ratio; also: potency is read from the fitted curve at half-maximal effect; % is scaled to controls: 0 for no effect and ±100 for the full control effect
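S3 HeLa stable clones carrying a lamin A-EGFP splicing minigene plus DsRed2 were seeded at 600 cells/well in Opti-MEM with 2% FBS, pin-dosed and incubated 48 h at 37°C. Acumen cytometry (488 nm) gave the GFP/RFP total-intensity ratio.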
* hit, by the source's call; ? = inconclusive; . = not tested or not shown; [ ] = dose if it differs, or a comment. Unless noted, calls follow the shape of the dose curve; as a rule, active = well fitted curve in the direction sought with a large enough effect; inconclusive = small, poorly fitted or top-dose-only effect, or another doubt; inactive = no such curve, though single readings can be large; an effect the other way counts as inactive or inconclusive.

[1] COc1ccc(N2CCN(C(=O)c3c(Cl)cnn3C)CC2)cc1
[2] CCSc1ncc(Cl)c(C(=O)N2CCN(c3ccc(OC)cc3)CC2)n1
[3] CCOC(=O)/C=C1\SCC(=O)N1CC(=O)NC(C)C
[4] CCOC(=O)/C=C1\SCC(=O)N1CC(=O)NC(C)c1ccccc1 (stereo unspecified)
[5] COC(=O)C1=C(C)NC(=S)NC1/C=C/c1ccccc1 (stereo unspecified)
[6] CC1=C(C(=O)Nc2ccccc2C)C(c2ccc(C)o2)NC(=S)N1 (stereo unspecified)
[7] COC(=O)C1=C(C)NC(=S)NC1c1sccc1C (stereo unspecified)
[8] COC(=O)C1=C(C)NC(=S)NC1c1ccc(OC(=O)c2ccco2)cc1 (stereo unspecified)
[9] CC1=C(C(=O)Nc2ccccc2C(F)(F)F)C(c2ccc(C)s2)NC(=S)N1 (stereo unspecified)
[10] CC1=C(C(=O)Nc2cccc(C)c2C)C(c2cccs2)NC(=S)N1 (stereo unspecified)

assay / entry	1	2	3	4	5	6	7	8	9	10
miR-21 reporter	-8%	-3%	-1%	-3%	6%	-3%	2%	-2%	1%	-3%
Sfp inh	-9%	.	20%	14%	-1%	-13%	22%	15%	13%	17%
JMJD2E inh	.	.	8%	-1%	8%	-11%	2%	0%	-5%	-1%
ALDH1A1 inh	.	.	10%	-4%	1.1µM*	?	11µM*	?	0.63µM*	0%
G9a inh	40%	14µM*	3.5µM*	20%[59 µM]	?	-41%[59 µM]	?	2%	-10%	-25%[59 µM]
Lamin A splicing	.	.	-5%	8%	.	?	.	-5%[46 µM]	-15%[46 µM]	?

[11] CCOC(=O)C1=C(C)NC(=S)NC1/C=C/c1ccccc1 (stereo unspecified)
[12] CC1=C(C(=O)Nc2ccccc2C(F)(F)F)C(c2sccc2C)NC(=S)N1 (stereo unspecified)
[13] CCn1c(SCC(=O)Nc2ccc(F)cc2)nnc1-c1cnccn1
[14] Cc1ccc(C)c(CSc2nc(-c3ccccc3F)nc3c2Cc2c(CO)cnc(C)c2O3)c1
[15] CN(C(=O)c1cnc(N2CCOCC2)c2ccccc12)c1ccccc1F
[16] Cc1nc2nc(Cc3ccccc3)nn2c(C)c1Cl
[17] Cc1nc2nc(CCc3ccccc3)nn2c(C)c1Cl
[18] O=C(CSc1nnc(Cc2cccs2)n1-c1ccc(Cl)cc1)NCc1ccc2c(c1)OCO2
[19] O=C(CSc1ncc(C(=O)O)n1-c1ccc(F)cc1)NCc1ccc2c(c1)OCO2
[20] O=C(CSc1ncnc2c1cnn2-c1ccc(F)cc1)NCc1ccc2c(c1)OCO2

assay / entry	11	12	13	14	15	16	17	18	19	20
miR-21 reporter	13%	14%	-4%	-1%	5%	-21%	-35%	-5%	0%	-14%
Sfp inh	-6%	1%	1%	.	.	7%	1%	5%	-3%	-19%
JMJD2E inh	-1%	?	.	.	.	1%	3%	?	-5%	0%
ALDH1A1 inh	0%	4.5µM*	.	.	.	14µM*	-8%	?	6%	5%
G9a inh	4%[59 µM]	13%	97%	2%[59 µM]	-5%[59 µM]	-9%[59 µM]	76%[59 µM]	50µM*	45µM*	-11%[59 µM]
Lamin A splicing	?	?	.	.	9%[46 µM]	-11%	6%	13%	.	-13%

[21] O=C(CSc1nnnn1C1CCCCC1)NCc1ccc2c(c1)OCO2
[22] CCn1nnnc1SCC(=O)NCc1ccc2c(c1)OCO2
[23] COc1ccc(OC)c(-n2nnnc2SCC(=O)NCc2ccc3c(c2)OCO3)c1
[24] CCC1CC=CC2C1C(=O)N(Cc1ccccc1)C2c1ccoc1 (stereo unspecified)
[25] Cc1ccc(S(=O)(=O)c2nnn3c2nc(N2CCN(c4cccc(C)c4C)CC2)c2ccccc23)cc1C
[26] O=C(CSc1nnnn1C1CCCC1)NCc1ccc2c(c1)OCO2
[27] CC(=O)Nc1ccc(C(=O)CSc2nnnn2C2CCCC2)cc1
[28] COC(=O)c1ccc(NC(=O)CSc2nnnn2C2CCCCC2)cc1
[29] COc1cccc(-c2nnc(SCC(=O)NCc3ccc4c(c3)OCO4)n2Cc2ccco2)c1
[30] CCOc1ccc(-c2cc3c(=O)n(Cc4nc(-c5ccccc5OCC)oc4C)ccn3n2)cc1Cl

assay / entry	21	22	23	24	25	26	27	28	29	30
miR-21 reporter	1%	-6%	3%	.	-3%	1%	-12%	2%	0%	-1%
Sfp inh	10%	-6%	14%	-15%	.	19%	12%	-19%	40µM*	.
JMJD2E inh	3%	2%	7%	.	.	9%	10%	4%	3%	.
ALDH1A1 inh	14µM*	-9%	13µM*	.	.	20µM*	16µM*	-2%	?	.
G9a inh	-2%	?	12%[12.7 µM]	.	-17%[59 µM]	-43%	6%	30%[59 µM]	45µM*	-1%[59 µM]
Lamin A splicing	4%	-1%	-9%	.	8%[46 µM]	2%	.	-8%	11%	.

Three entries out of the list, sorted by number of heavy atoms, smallest number first.
[22] CCn1nnnc1SCC(=O)NCc1ccc2c(c1)OCO2
[24] CCC1CC=CC2C1C(=O)N(Cc1ccccc1)C2c1ccoc1 (stereo unspecified)
[26] O=C(CSc1nnnn1C1CCCC1)NCc1ccc2c(c1)OCO2

assay / entry	22	24	26
miR-21 reporter	-6%	.	1%
Sfp inh	-6%	-15%	19%
JMJD2E inh	2%	.	9%
ALDH1A1 inh	-9%	.	20µM*
G9a inh	?	.	-43%
Lamin A splicing	-1%	.	2%

(list continues)
[31] COc1ccc2c(CNCc3cccs3)c(C(=O)O)n(Cc3cccc(F)c3)c2c1
[32] O=c1c2ccccc2sn1-c1cc(S(=O)(=O)N2CCOCC2)ccc1N1CCOCC1
[33] O=c1c2ccccc2sn1-c1cc(S(=O)(=O)N2CCOCC2)ccc1N1CCCC1
[34] Cn1cccc1C(=O)N1CCC2(CCCN(C(c3ccccc3)c3ccccc3)C2)CC1
[35] COc1ccc(C)cc1NC(=O)CN(C)S(=O)(=O)c1ccc2c(c1)CC(C)N2C(C)=O (stereo unspecified)
[36] CCOc1ccc(NC(=O)CCSc2nc(-c3ccc4c(c3)OCO4)cc(C(F)(F)F)n2)cc1
[37] Cn1c(=O)n(Cc2ccccc2)c(=O)c2c1nc1n2CCCN1CCc1ccccc1
[38] Cn1c(Br)nc2c1c(=O)n(Cc1ccccc1)c(=O)n2C
[39] Cn1c(NN)nc2c1c(=O)n(Cc1ccccc1)c(=O)n2C
[40] Cn1c(NN)nc2ccccc2c1=O

assay / entry	31	32	33	34	35	36	37	38	39	40
miR-21 reporter	-8%	28%	7%	.	-3%	-13%	10%	2%	7%	-25%
Sfp inh	.	0.71µM*	0.2µM*	4%	7%	.	-7%	1%	?	18µM*
JMJD2E inh	.	8.9µM*	14µM*	.	.	.	-1%	.	.	?
ALDH1A1 inh	.	0.056µM*	0.022µM*	1%	.	.	?	.	.	?
G9a inh	?	.	?	-5%[12.7 µM]	2%	-2%[59 µM]	50µM*	.	28µM*	50µM*
Lamin A splicing	.	?	4%	.	.	.	4%	.	.	-11%[46 µM]

[41] Cn1c(=O)n(Cc2ccccc2)c(=O)c2c1nc1n2CCCN1Cc1ccccc1
[42] CCc1c(C)sc(NC(=O)Cn2nc(C(F)(F)F)c3c2CCCC3)c1C#N
[43] CCCC(=O)Nc1sc(C)c(C)c1C#N
[44] CCOC(=O)C(NC(=O)CC)(Nc1sc(C)c(CC)c1C#N)C(F)(F)F (stereo unspecified)
[45] CCCCCC(=O)Nc1sc(C)c(C)c1C#N
[46] CCc1c(C)sc(NC(=O)CC#N)c1C#N

assay / entry	41	42	43	44	45	46
miR-21 reporter	-6%	-7%	-14%	-3%	-37%	1%
Sfp inh	-14%	40µM*	-22%	-1%	79µM*	32µM*
JMJD2E inh	2%	-5%	-11%	4%	4%	?
ALDH1A1 inh	?	?	?	-2%	10µM*	3.5µM*
G9a inh	9%[59 µM]	14µM*	45µM*	?	3.2µM*	-27%[2.33 µM]
Lamin A splicing	-9%	?	14%[46 µM]	-8%	?	-2%
